Experimental data taken from patent US8354379B2, “Peptides that enhance acetylcholinesterase expression” (dated 2013).

Amino acid sequences for entries named in this document (tags omitted). A change or cut given only in a name is not applied to a line headed by its entry.
UniProt P22303: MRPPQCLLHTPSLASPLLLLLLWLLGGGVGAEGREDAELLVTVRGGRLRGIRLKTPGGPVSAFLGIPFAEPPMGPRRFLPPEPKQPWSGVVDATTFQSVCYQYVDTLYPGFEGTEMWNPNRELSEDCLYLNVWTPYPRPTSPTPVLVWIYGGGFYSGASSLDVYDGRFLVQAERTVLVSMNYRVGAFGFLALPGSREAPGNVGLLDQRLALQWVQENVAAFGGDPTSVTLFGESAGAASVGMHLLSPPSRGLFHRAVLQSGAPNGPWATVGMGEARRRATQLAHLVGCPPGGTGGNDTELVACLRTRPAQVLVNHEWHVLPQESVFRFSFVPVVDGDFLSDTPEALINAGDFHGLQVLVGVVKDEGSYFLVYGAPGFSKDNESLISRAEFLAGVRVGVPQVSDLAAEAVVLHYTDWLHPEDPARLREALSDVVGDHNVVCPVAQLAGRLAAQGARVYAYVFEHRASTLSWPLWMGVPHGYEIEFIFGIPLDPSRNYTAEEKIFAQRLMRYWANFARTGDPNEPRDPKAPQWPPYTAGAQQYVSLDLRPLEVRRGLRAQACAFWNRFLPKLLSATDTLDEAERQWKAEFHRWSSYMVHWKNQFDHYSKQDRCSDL

Tests used:
AChE [1] = assay: Ability of peptides to enhance AChE expression (G4 AChE level) in COS cells expressing AChE; conditions: COS cells expressing human and/or mouse AChE; peptide at optimal concentration determined for ColQ PRAD-KDEL; untreated control 0.4798
AChE [2] = assay: Incubation of primary quail muscle cells with ColQ PRAD peptide; medium analyzed by velocity sedimentation and AChE assay; conditions: primary quail muscle cultures, overnight in defined medium, 10 uM peptide
AChE [3] = assay: Incubation of cultured cells expressing AChE with synthetic PRAD peptides; conditions: primary skeletal muscle cells, COS cells and HEK-293 cells expressing AChE from several species
human AChE = human AChE (Homo sapiens, UniProt P22303); assay: Recovery of secreted AChE forms after DFP treatment of COS cells expressing human AChE (velocity sedimentation, Ellman assay); conditions: 10 uM DFP 10 minutes, recovery 6 hours with 10 uM peptide vs without

| Sequence | G4 AChE level (AChE [1]) | further results |
| --- | --- | --- |
| VNKCCLLTPPPPPLFPPPFFKDEL | 2.2609 |  |
| KRSVNKCCLLTPPPPPLFPPPFFKDEL | 2.3723 |  |
| CCLLTPPPPPLFPPPFF |  | change in tetrameric G4 AChE activity in medium (AChE [2]): more than doubling; AChE expression (AChE [3]): increased AChE expression |
| CCLLTPPPPPLFPPPFFKDEL | 2.3748 | change in dimeric AChE form (human AChE): only a small decrease; increase in secreted tetrameric AChE form (human AChE): 350% |
| VNKCCLLTPPPPPLFPPPFFTETKDEL | 2.1710 |  |
| KRSVNKCCLLTPPPPPLFPPPFFTETNILKDEL | 2.1384 |  |
